Molecular target: T1, indoleamine 2,3-dioxygenase 1 (IDO1) (Homo sapiens, UniProt P14902)
T1 construct: full-length, N-terminal His-AK tag (His-AK-IDO1)
Assay: purified recombinant enzyme inhibitor screen (compounds at […]), kynurenine absorbance at […] nm
Format: biochemical

Amino acid sequences for entries named in this document (tags omitted).
UniProt P14902, whole entry: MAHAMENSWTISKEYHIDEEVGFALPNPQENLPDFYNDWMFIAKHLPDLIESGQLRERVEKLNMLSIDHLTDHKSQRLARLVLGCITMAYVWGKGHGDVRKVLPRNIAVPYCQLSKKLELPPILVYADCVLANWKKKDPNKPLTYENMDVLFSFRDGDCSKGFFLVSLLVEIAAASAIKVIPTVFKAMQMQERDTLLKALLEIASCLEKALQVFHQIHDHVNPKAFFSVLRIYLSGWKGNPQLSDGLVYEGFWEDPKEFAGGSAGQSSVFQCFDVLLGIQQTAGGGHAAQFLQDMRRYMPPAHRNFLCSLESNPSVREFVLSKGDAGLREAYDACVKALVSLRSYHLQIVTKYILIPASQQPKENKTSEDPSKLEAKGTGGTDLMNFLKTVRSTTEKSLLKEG

C[C@]12CCC(=O)C=C1CC[C@@H]1[C@@H]2CC[C@]2(C)C(=O)CC[C@@H]12 [androstenedione]
purified recombinant enzyme inhibitor screen (compounds at 10 μM), kynurenine ab: several compounds, including mangostin and androstenedione, could inhibit the activity of IDO1 (Supplementary Figures S1A,B)

Reference: paper PMC9091350, “Sodium Tanshinone IIA Sulfonate as a Potent IDO1/TDO2 Dual Inhibitor Enhances Anti-PD1 Therapy for Colorectal Cancer in Mice” (Frontiers in Pharmacology, 2022)
